Data taken from ChEMBL document CHEMBL6096727, “Structure-Based Rational Design and Evaluation of BET-Aurora Kinase Dual-Inhibitors for Treatment of Cancers” (J Med Chem, 2025).

Target: T1, Aurora kinase A (Homo sapiens) (UniProt O14965)
T1 sequence (whole entry): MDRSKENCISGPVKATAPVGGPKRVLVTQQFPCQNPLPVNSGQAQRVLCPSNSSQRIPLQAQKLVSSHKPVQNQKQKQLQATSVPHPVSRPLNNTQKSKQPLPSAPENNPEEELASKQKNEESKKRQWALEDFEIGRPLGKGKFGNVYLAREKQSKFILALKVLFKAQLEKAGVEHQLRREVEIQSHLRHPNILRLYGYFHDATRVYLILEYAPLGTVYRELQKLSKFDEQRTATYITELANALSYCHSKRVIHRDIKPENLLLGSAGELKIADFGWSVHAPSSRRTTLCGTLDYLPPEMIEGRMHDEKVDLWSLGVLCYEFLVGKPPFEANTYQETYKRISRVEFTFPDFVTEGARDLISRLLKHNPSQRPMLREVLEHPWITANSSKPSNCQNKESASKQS
Assay: Inhibition of AURKA (unknown origin) at 1 uM relative to control

SMILES: CC(C)N1c2cc(Nc3nccc(-c4ccccc4)n3)ccc2N(C)C(=O)C1C (stereo unspecified)
- inhibition: 67.4%
